Assay results reported in PubChem BioAssay AID678 (Vanderbilt High Throughput Screening Facility, 2007).
This is a selection; strong and weak results do not stand in their true shares. Some of these compounds have results that are not shown, active ones among them. Calls of active or inactive are those of the source.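 Rule for the calls: active = fluorescence response below the plate's average for near-maximal glutamate wells, less 3 SD of those wells; inactive = the rest.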

Target: Metabotropic glutamate receptor 4 (Homo sapiens) (UniProt Q14833)
Assay: human mGluR4 response to M1 antagonist hits, M1 allosteric modulator project, cell-based, antagonist mode, secondary assay 1 (AID 678);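 note: raw unnormalized fluorescence span taken in the window right after glutamate addition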
Settings: CHO-mGluR4 calcium flux, Fluo-4 fluorescence, glutamate EC80; at 10 µM; stronger effect = lower value

Question: With `O=C(OC1CN2CCC1CC2)C(CO)(c1ccccc1)c1ccccc1` (stereo unspecified) as the molecule, how does the fluorescence response (max-min) read?
Answer: inactive: 204
